For two compounds, IC50 results are on record in PubChem BioAssay AID1259371 (The Scripps Research Institute Molecular Screening Center, 2018).

By UniProt entry, the sequences of proteins in these tests, tags left out. Where a name states a change or a piece, a line headed by the entry shows the natural chain unless it says otherwise.
UniProt O75030: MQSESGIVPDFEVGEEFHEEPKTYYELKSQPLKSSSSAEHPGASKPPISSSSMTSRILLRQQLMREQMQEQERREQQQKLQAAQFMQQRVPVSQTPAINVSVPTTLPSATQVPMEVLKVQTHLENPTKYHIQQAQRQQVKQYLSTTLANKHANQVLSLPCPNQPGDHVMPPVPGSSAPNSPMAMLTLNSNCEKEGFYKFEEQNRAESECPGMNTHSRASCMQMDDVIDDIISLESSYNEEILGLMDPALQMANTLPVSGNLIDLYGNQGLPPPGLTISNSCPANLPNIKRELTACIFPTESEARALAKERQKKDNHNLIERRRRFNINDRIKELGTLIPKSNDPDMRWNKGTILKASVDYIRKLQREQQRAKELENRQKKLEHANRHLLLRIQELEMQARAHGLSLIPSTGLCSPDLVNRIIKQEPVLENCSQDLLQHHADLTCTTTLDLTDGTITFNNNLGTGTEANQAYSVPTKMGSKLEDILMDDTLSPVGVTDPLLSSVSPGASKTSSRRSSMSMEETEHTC

The target of this test is Microphthalmia-associated transcription factor (Homo sapiens) (UniProt O75030). The test can be described thus: compounds blocking human MITF signal – biochemical, AlphaScreen, dose response (AID 1259371). The conditions noted are these: AlphaScreen biochemical MITF assay, signal inhibition.

Calls of active or inactive are those of the source. How the calls were made is not given here.

Regarding `CC(C)OP(=O)(OC(C)C)C(=O)c1ccco1`, the IC50 result is “inactive”.
`Cc1ccc([N+](=O)[O-])c2no[n+]([O-])c12`: the IC50 is 16.6 nM.
